Experimental data published in publication PMC8258697 (The Journal of Biological Chemistry, 2021).

Sequences of proteins named here, by UniProt entry; tags and fusion partners are left off. Residues count along the entry.
UniProt P19793, 226-462: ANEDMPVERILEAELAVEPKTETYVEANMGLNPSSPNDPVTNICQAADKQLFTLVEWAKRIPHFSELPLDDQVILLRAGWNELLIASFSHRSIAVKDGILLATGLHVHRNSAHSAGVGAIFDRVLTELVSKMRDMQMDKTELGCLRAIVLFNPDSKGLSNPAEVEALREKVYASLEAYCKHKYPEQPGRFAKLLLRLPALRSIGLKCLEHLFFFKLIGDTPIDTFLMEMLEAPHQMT
UniProt P37231, 234-505: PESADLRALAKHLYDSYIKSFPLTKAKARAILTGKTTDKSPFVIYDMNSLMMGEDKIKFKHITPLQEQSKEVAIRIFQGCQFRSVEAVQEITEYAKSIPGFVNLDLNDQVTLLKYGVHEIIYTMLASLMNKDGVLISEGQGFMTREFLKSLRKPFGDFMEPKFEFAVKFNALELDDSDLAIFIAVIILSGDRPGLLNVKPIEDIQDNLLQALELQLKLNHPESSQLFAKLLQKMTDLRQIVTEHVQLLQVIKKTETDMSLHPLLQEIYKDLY

Biological target: T1, PPARγ:RXRα heterodimer (Homo sapiens, UniProt P19793+P37231)
T1 construct: His10-tag with TEV site (N, cleaved yes); made in house; host or cells: E. coli T7 express (co-expressed with GroEL/ES)
Experiment: PPARγ:RXRα heterodimer formation HTRF assay, sGFP-RXRα LBD titrated against biotinylated PPARγ LBD coupled to Tb-SA
Type: binding

In the case of `CN(CCOc1ccc(CC2SC(=O)NC2=O)cc1)c1ccccn1` (stereo not shown) [Rosi, rosiglitazone], the “reduction of the apparent Kd of heterodimer formation” value was 2 fold.
